We go through 24 compounds from PubChem BioAssay AID2235 (The Scripps Research Institute Molecular Screening Center, 2010).

By UniProt entry, the sequences of proteins in these tests, tags left out.
UniProt P62136, whole entry: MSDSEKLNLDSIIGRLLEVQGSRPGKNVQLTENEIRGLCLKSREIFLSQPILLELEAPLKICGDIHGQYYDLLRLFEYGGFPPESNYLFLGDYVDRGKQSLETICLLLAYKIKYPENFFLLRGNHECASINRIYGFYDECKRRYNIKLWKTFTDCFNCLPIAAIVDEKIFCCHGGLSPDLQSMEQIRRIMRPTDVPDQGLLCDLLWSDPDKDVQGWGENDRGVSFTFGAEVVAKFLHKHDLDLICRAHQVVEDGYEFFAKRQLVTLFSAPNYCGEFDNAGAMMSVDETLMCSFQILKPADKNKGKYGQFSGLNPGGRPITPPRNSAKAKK

Structures are written as SMILES. The list shows a part of the results, in another mix than the full data. Some tests of the compounds listed are not included; inactive here does not mean inactive elsewhere. The source made the active and inactive calls.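 Rule for the calls: active = inhibition above the mean inhibition of all tested compounds plus 3 SD, computed separately for each screening campaign (cut at about 15% in these data); inactive = the rest.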

For this test, the target named is Serine/threonine-protein phosphatase PP1-alpha catalytic subunit (Homo sapiens) (UniProt P62136). In words: PP1-alpha phosphatase inhibitors, primary screen, counter-screen for PP5 inhibitor project, biochemical, fluorescence, OMFP substrate, single point (AID 2235). The note with it: purified PP1alpha, at 6.7 µM, active compounds read high.
By inhibition is commonly meant the relative decrease from the control value, in per cent. `CN1[C@@H]2CC[C@H]1CC(OC(=O)C(O)(c1ccccc1)c1ccccc1)C2` (some centres undefined): the inhibition is inactive: 1.94%.

On to `O=C(NCC1(N2CCCCC2)CCCCC1)c1cc([N+](=O)[O-])ccc1Cl`, for which the inhibition is inactive: 0.43%. In the case of `Cc1ccc(C(=O)NCC2(N3CCCCC3)CCCCC2)cc1` it was inactive: 1.41%; in that of `CCN(CC)CC(C)C(C)OC(=O)C(O)(c1ccccc1)c1ccccc1` (centres undefined), inactive: -3.4%; in that of `COc1cc(SC)ccc1C(=O)NCC1(N(C)C)CCCCC1`, inactive: -2.03%.

Take `CC(C)N1C(=O)CC2(CCN(CCOC(=O)C(O)(c3ccccc3)c3ccccc3)CC2)C1=O`: the inhibition was inactive: -1.71%. Then `Cc1ccccc1C(=O)NCC1(N2CCCCC2)CCCCC1`, with inactive: -0.52%. In the case of `CN(C)c1ccc(C(=O)NCC2(N(C)C)CCCCC2)cc1` it was inactive: -1.19%.

On to `CN(C)C1CCCC1OC(=O)C(O)(c1ccccc1)c1ccccc1` (centres undefined), for which the inhibition is inactive: -4.71%. Consider `COc1ccc(C(=O)NCC2(N(C)C)CCCCC2)cc1`, for which the inhibition is inactive: -2.19%. Then `CCN1CCCC(OC(=O)C2(O)c3ccccc3C=Cc3ccccc32)C1` (centres undefined), with inactive: -0.29%. Then `Cc1cc(C(=O)NCC2(N3CCCCC3)CCCCC2)ccc1[N+](=O)[O-]`, with inactive: 2.55%; and `O=C(NCC1(N2CCCCC2)CCCCC1)c1cccc(Br)c1`, with inactive: -4.02%; and `C=CCN1CCN(CCOC(=O)C(O)(c2ccccc2)c2ccccc2)CC1`, with inactive: 4.75%. Then `O=C(NCC1(N2CCCCC2)CCCCC1)c1cc(F)c(F)cc1Cl`, with inactive: 2.98%; and `COc1cc(C(=O)NCC2(N(C)C)CCCCC2)c([N+](=O)[O-])cc1OC`, with inactive: -5.27%; and `CN(C)C1(CNC(=O)c2ccc(Br)cc2)CCCCC1`, with inactive: -1.9%. On to `O=C(NCC1(N2CCCCC2)CCCCC1)c1cccc(Cl)c1`, for which the inhibition was inactive: -1.23%. Consider `COc1cccc(C(=O)NCC2(N3CCCCC3)CCCCC2)c1`, for which the inhibition was inactive: -0.69%.

Consider `COc1ccc(Cl)cc1C(=O)NCC1(N(C)C)CCCCC1`, for which the inhibition was inactive: -3.6%. For `O=C(OC1CN2CCC1CC2)C(CO)(c1ccccc1)c1ccccc1` (centres undefined), the inhibition was inactive: -4.93%. With `CC(C)Oc1ccc(C(=O)NCC2(N(C)C)CCCCC2)cc1`, the inhibition is inactive: -2.16%. Regarding `CN(C)c1cccc(C(=O)NCC2(N(C)C)CCCCC2)c1`, the inhibition is inactive: -0.03%.

In the case of `COc1ccc(Br)c(C(=O)NCC2(N3CCCCC3)CCCCC2)c1`, the inhibition was inactive: 1.23%.
